Most compounds without a hit are left out; they make up all but 16% or so of the library.
DT40 TDP1 CPT: DT40-hTDP1 cell growth loss with CPT; 420,000 compounds, 12% hits; Potency, µM (titrated, usually from 46.2 µM), actives largely listed as inhibitors; chicken DT40 Tdp1-/-;hTDP1 cells + 20 nM CPT, ATP luminescence, 48 h; also: nearly all actives have a fitted effect of over 55% in size
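Chicken DT40 Tdp1-/- cells complemented with human TDP1, 400 cells/well, exposed to compounds plus 20 nM camptothecin for at least 48 h at 37 C; viability read as ATP content by CellTiter-Glo luminescence.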
TDP1 cell noCPT: qHTS for Inhibitors of human tyrosyl-DNA phosphodiesterase 1 (TDP1): qHTS in cells in absence of CPT; Potency, µM (titrated, usually from 46.2 µM), usual class: inhibitors; DT40 Tdp1-/- hTDP1 cells, no CPT, ATP luminescence, 48 h; 420,000 compounds, 15% hits; AID 686978, 2013; also: nearly all actives have a fitted effect of over 55% in size
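Chicken DT40 Tdp1-/- cells stably complemented with human TDP1 were seeded at 400 cells/well with DMSO in place of 20 nM camptothecin. After compound pinning, cells grew at least 48 hr at 37 °C; viability read by CellTiter-Glo luminescence.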
uPA surface inh: blocks generation of uPA at the cell surface; cell surface uPA generation assay, qHTS; Potency, µM (titrated, usually from 38.3 µM), actives largely listed as inhibitors; 330,000 compounds, 0.31% hits; AID 540303; active = well fitted inhibition curve with a large enough effect; inconclusive = small, poorly fitted or top-dose-only effect; inactive = no such curve, though single readings can be large or run the other way; tested in mouse RAW 264.7 cells; also: nearly all actives have a fitted effect of over 55% in size
TDP1 inh: inhibitors of human tyrosyl-DNA phosphodiesterase TDP1 | recombinant TDP1, AlphaScreen DNA substrate cleavage | Potency, µM (doses to about 130 µM), actives largely listed as inhibitors | 350,000 compounds, 0.28% hits | AID 485290; also: nearly all actives have a fitted effect of over 40% in size
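Steps: enzyme plus compound, 15 min RT; add biotin/phosphotyrosine-FITC oligonucleotide (15 nM final), react 5 min; add donor/acceptor beads (10 ug/ml final), 10 min; read AlphaScreen. Tdp1 at 1 nM final.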
miR-21 reporter: raises the signal of a miR-21 reporter; AID 2288; 340,000 tested, under 10 active; Potency, µM (doses to about 38.3 µM); HeLa miR-21 FLuc reporter, luciferase, 48 h; active = well fitted rising curve with a large enough effect; inconclusive = small, poorly fitted or top-dose-only effect; inactive = no such curve, though single readings can be large or run the other way;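 note: miR-21 action dims this reporter so a rising signal means less miR-21 action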
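HeLa cells endogenously expressing miR-21, stably carrying CMV-driven firefly luciferase with a downstream miR-21 binding site, 2000 cells/well. Titrations up to approximately 40 uM, 48 hours; luciferase luminescence read.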
Each line names hits and unclear results; the compound was inactive in the other large screens. Unless noted, calls follow the shape of the dose curve; as a rule, active = well fitted curve in the direction sought with a large enough effect; inconclusive = small, poorly fitted or top-dose-only effect, or another doubt; inactive = no such curve, though single readings can be large; an effect the other way counts as inactive or inconclusive.

CC(C)=CC(=O)OCc1csc(CC(=O)Nc2ccccc2C)n1	none
CCN(CC)S(=O)(=O)c1cccc(NC(=O)COC(=O)c2[nH]c(C)c(C(C)=O)c2C)c1	DT40 TDP1 CPT 1.84µM, TDP1 cell noCPT 1.03µM (no result: uPA surface inh, TDP1 inh, miR-21 reporter)
CC(=O)c1c(C)[nH]c(C(=O)OCC(=O)Nc2cc(S(=O)(=O)N3CCCC3)ccc2Cl)c1C	DT40 TDP1 CPT inconclusive, TDP1 cell noCPT 23.1µM
CC(=O)c1c(C)[nH]c(C(=O)OCc2csc(CC(=O)Nc3ccccc3C)n2)c1C	DT40 TDP1 CPT 18.4µM, TDP1 cell noCPT 9.2µM (no result: miR-21 reporter)
COc1ccc(S(=O)(=O)N2CCOCC2)cc1NC(=O)COC(=O)c1[nH]c(C)c(C(C)=O)c1C	none (no result: miR-21 reporter)
Cc1ccccc1NC(=O)C(C)n1c2ccccc2c2nc(=O)cc(C)n21 (configuration not stated)	none (no result: TDP1 inh)
O=C(Nc1ccccc1)N1CCCC2(CCN(S(=O)(=O)c3ccccc3)CC2)C1	none (no result: uPA surface inh, TDP1 inh, miR-21 reporter)
COC(=O)C1=C(C)NC(=O)NC1c1cccc(OC)c1OCc1ccccc1 (configuration not stated)	DT40 TDP1 CPT inconclusive, TDP1 cell noCPT inconclusive
CC(=O)c1c(C)[nH]c(C(=O)OCC(=O)Nc2ccccc2Cl)c1C	DT40 TDP1 CPT 16.4µM, TDP1 cell noCPT 14.6µM (no result: uPA surface inh)
CC(=O)c1c(C)[nH]c(C(=O)CN2CCN(S(=O)(=O)c3ccc(C(C)C)cc3)CC2)c1C	DT40 TDP1 CPT 14.6µM, TDP1 cell noCPT 10.3µM (no result: miR-21 reporter)
CSc1ncc(C(=O)Nc2cccc(Cl)c2C)c(-c2ccccc2)n1	TDP1 cell noCPT inconclusive (no result: uPA surface inh)
COc1cc2c(cc1OC)CN(CCC(=O)c1ccc(Br)cc1)CC2	DT40 TDP1 CPT 3.66µM, TDP1 cell noCPT 1.64µM
COc1cc2c(cc1OC)CN(C(=O)CCC(=O)c1ccc(F)cc1)CC2	DT40 TDP1 CPT 18.4µM, TDP1 cell noCPT 11.6µM, uPA surface inh inconclusive (no result: miR-21 reporter)
COc1cc2c(cc1OC)CN(C(=O)CSC1=NCCS1)CC2	DT40 TDP1 CPT inconclusive, TDP1 cell noCPT 20.6µM (no result: uPA surface inh, TDP1 inh, miR-21 reporter)
COc1cc2c(cc1OC)CN(C(=O)CCNC(=O)c1ccc(Br)cc1)CC2	DT40 TDP1 CPT inconclusive (no result: miR-21 reporter)
CN(C)C(=O)c1cn(-c2ccccc2)nc1-c1cc2ccccc2o1	none
OCc1cn(-c2ccccc2)nc1-c1ccc(-c2nn(-c3ccccc3)cc2CO)cc1	DT40 TDP1 CPT inconclusive, TDP1 cell noCPT 10.3µM
O=C(Nc1ccccc1)c1cn(-c2ccccc2)nc1-c1ccccc1	DT40 TDP1 CPT inconclusive, TDP1 cell noCPT 16.4µM (no result: uPA surface inh)
O=C(CCl)Nc1cn(-c2ccccc2)nc1-c1ccc(F)cc1	DT40 TDP1 CPT 4.61µM, TDP1 cell noCPT 3.66µM, miR-21 reporter inconclusive
O=C(Nc1ccc([N+](=O)[O-])cc1)c1cn(-c2ccccc2)nc1-c1cc2ccccc2o1	DT40 TDP1 CPT 8.2µM, TDP1 cell noCPT 10.3µM
CCN1CCN(CCC2Oc3cc([N+](=O)[O-])ccc3NC2=O)CC1 (configuration not stated)	none
COc1ccc(Cn2cc(CN3CC(N4CC=CC4)CS3(=O)=O)nn2)cc1 (configuration not stated)	none (no result: uPA surface inh, TDP1 inh, miR-21 reporter)
CC1=C(C#N)C(/C=N/OCc2ccc(F)cc2Cl)CC(=O)N1 (configuration not stated)	DT40 TDP1 CPT inconclusive, TDP1 cell noCPT inconclusive
Cc1nn(Cc2c(Cl)cccc2Cl)c(C)c1NC(=O)c1cn(-c2ccccc2)nc1-c1ccccc1	DT40 TDP1 CPT 6.51µM, TDP1 cell noCPT 4.61µM
Cc1ccc(NC(=O)c2cn(-c3ccccc3)nc2-c2ccccc2)cc1	DT40 TDP1 CPT inconclusive, TDP1 cell noCPT inconclusive (no result: uPA surface inh)
O=C1CCCc2cc3c(cc21)CC1(C3)Cc2cc3c(cc2C1)C(=O)CCC3	DT40 TDP1 CPT 3.66µM, TDP1 cell noCPT 4.61µM, uPA surface inh inconclusive
COc1ccc(CCNC(=O)C(=O)NCc2ccc(C)cc2)cc1OC	none (no result: uPA surface inh)
CCOc1ccc(N2CC(O)=C(c3nc4ccccc4c(=O)[nH]3)C2=N)cc1	TDP1 inh inconclusive
CCOC(=O)c1ccc(N2CC(O)=C(c3nc4ccccc4c(=O)[nH]3)C2=N)cc1	DT40 TDP1 CPT inconclusive, TDP1 cell noCPT 10.3µM
N=C1C(c2nc3ccccc3[nH]2)=C(O)CN1c1ccc(CC(=O)O)cc1	none (no result: uPA surface inh)
COc1ccc(CCN2CC(O)=C(c3nc(C)cs3)C2=N)cc1OC	none (no result: uPA surface inh)
CCC(C)N1CC(O)=C(c2nc3ccccc3[nH]2)C1=N (configuration not stated)	DT40 TDP1 CPT 23.1µM, TDP1 cell noCPT inconclusive
COc1ccc(CCN2CC(O)=C(c3nc4ccccc4c(=O)[nH]3)C2=N)cc1OC	DT40 TDP1 CPT inconclusive, TDP1 cell noCPT 18.4µM (no result: uPA surface inh)
N=C1C(c2nc3ccccc3[nH]2)=C(O)CN1c1ccccc1	DT40 TDP1 CPT inconclusive, TDP1 cell noCPT 23.1µM
Cc1ccc(NC(=O)C(c2ccccc2)N2CCN(CC(=O)N3CCOCC3)CC2)cc1 (configuration not stated)	none (no result: miR-21 reporter)
COc1cc(OC)c(NC(=O)[C@@H]2CCC(=O)N2C2OC(=O)c3c2ccc(OC)c3OC)cc1Cl (some centres not stated)	none (no result: TDP1 inh)
O=S(=O)(c1ccccc1F)N1CCCc2ccccc21	DT40 TDP1 CPT inconclusive (no result: TDP1 inh)
CC1C(O)=C(c2nc3ccccc3[nH]2)C(=N)N1c1ccccc1 (configuration not stated)	DT40 TDP1 CPT inconclusive, TDP1 cell noCPT 20.6µM, uPA surface inh inconclusive
CCCC(C(=O)Nc1cccc(S(=O)(=O)N2CCCC2)c1)c1ccccc1 (configuration not stated)	DT40 TDP1 CPT 23.1µM, TDP1 cell noCPT 20.6µM (no result: TDP1 inh, miR-21 reporter)
COc1ccc(NCC(=O)Nc2cccc(S(=O)(=O)N3CCCC3)c2)cc1Cl	DT40 TDP1 CPT inconclusive, TDP1 cell noCPT 13µM, uPA surface inh inconclusive (no result: miR-21 reporter)
CCN(CC)S(=O)(=O)c1ccc(C)c(NC(=O)CNc2cccc(S(=O)(=O)N3CCOCC3)c2)c1	TDP1 cell noCPT inconclusive (no result: TDP1 inh, miR-21 reporter)
CCN(CC)S(=O)(=O)c1cc(NC(=O)CNc2cccc(S(=O)(=O)N3CCCC3)c2)ccc1C	DT40 TDP1 CPT 3.26µM, TDP1 cell noCPT 2.59µM (no result: miR-21 reporter)
CCN(CC)S(=O)(=O)c1ccc(C)c(NC(=S)Nc2cccc(S(=O)(=O)N3CCCCCC3)c2)c1	DT40 TDP1 CPT inconclusive, TDP1 cell noCPT 23.1µM
C=CCNC(=O)COC(=O)c1oc2ccccc2c1CSC1CCCCC1	TDP1 cell noCPT inconclusive
O=C(CNc1cccc(S(=O)(=O)N2CCCCC2)c1)Nc1cccc(F)c1	TDP1 cell noCPT inconclusive (no result: miR-21 reporter)
CN(C)S(=O)(=O)c1cccc(NC(=O)CNc2cccc(S(=O)(=O)N3CCCCC3)c2)c1	DT40 TDP1 CPT inconclusive, TDP1 cell noCPT 20.6µM (no result: uPA surface inh, TDP1 inh, miR-21 reporter)
Cc1ccc(S(=O)(=O)N2CCCCC2)cc1NC(=O)COC(=O)c1cccc(O)c1	none (no result: uPA surface inh, TDP1 inh, miR-21 reporter)
CCCC(C(=O)Nc1ccc2c(C)cc(=O)oc2c1)c1ccccc1 (configuration not stated)	DT40 TDP1 CPT 25.9µM, TDP1 cell noCPT inconclusive

Screening data as filed in PubChem.
